Earlier results, collected in patent US20070004010A1, “Engineered Enzymes and Their Use for Synthesis of Thioglycosides” (THE UNIVERSITY OF BRITISH COLUMBIA, priority 2002, published 2007).

Protein sequences, listed by entry. Tags and fused reporters are not part of them.
UniProt P12614, whole entry E171A: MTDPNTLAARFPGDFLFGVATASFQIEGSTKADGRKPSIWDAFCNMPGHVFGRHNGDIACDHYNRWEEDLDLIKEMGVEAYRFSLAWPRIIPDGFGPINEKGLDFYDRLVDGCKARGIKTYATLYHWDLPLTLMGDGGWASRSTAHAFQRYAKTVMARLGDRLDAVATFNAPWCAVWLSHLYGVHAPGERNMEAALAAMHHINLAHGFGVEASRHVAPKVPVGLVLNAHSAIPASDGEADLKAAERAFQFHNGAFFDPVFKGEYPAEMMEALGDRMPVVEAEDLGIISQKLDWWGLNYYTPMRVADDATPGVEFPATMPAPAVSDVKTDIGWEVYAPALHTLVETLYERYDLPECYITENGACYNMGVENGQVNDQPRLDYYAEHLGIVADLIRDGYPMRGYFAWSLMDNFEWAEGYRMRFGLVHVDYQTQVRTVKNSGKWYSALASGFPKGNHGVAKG

Tests used:
Abg E171A = Abg E171A (Agrobacterium sp., UniProt P12614, E171A); settings: read-out: KM value of the donor; shown previously; no donor substrate inhibition; cited from earlier work
[1] = cited from earlier work

SMILES	Km (Abg E171A) [nM]	pKa [1]
O=[N+]([O-])c1ccc(O[C@@H]2O[C@H](CO)[C@@H](O)[C@H](O)[C@H]2O)c([N+](=O)[O-])c1	< 1000	–
O=[N+]([O-])c1ccc([N+](=O)[O-])c(O)c1	–	5.15
